# Source: patent US9440982B2 (Eolas Therapeutics, Inc., priority 2012, dated 2016)
# Sequences of proteins named here, by UniProt entry; tags and fusion partners are left off.
# UniProt O43614, whole entry: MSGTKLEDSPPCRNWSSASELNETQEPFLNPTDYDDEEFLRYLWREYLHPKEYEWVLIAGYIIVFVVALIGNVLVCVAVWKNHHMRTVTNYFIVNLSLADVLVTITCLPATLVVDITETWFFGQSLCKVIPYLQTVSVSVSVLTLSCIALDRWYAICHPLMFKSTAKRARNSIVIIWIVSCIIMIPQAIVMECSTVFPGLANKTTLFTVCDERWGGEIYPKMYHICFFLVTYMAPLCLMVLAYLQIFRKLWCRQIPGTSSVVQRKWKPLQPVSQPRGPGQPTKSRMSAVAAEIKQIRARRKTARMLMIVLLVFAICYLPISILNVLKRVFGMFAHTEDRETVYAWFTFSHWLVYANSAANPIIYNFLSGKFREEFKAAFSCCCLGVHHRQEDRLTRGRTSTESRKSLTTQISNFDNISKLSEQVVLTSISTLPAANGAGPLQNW
# Biological target: T1, OX2 (Homo sapiens, UniProt O43614)
# T1 construct: expressed in transfected cells; host or cells: CHO (CHO-OX2, kept under selection antibiotic)
# Experiment: Orexin receptor cell-based functional assay, [Ca2+]i by FLIPR, CHO-OX2 cells
# Conditions: CHO-OX2 cells, [Ca2+]i by FLIPR, antagonist dose-range 0.1 nM-10 μM, EC90 of OXA; read-out: OX2
row,Structure (SMILES),IC50 [µM]
1,"Cc1ccc(-c2ccc(C(F)(F)F)cn2)c(C(=O)N2CCC[C@@H](C)[C@H]2CNc2ccc(Cl)cn2)c1 [Example A158, ((2S,3R)-2-(((5-Chloropyridin-2-yl)amino)methyl)-3-methylpiperidin-1-yl)(5-methyl-2-(5-(trifluoromethyl)pyridin-2-yl)phenyl)methanone]",> 5
2,"C[C@@H]1CCCN(C(=O)c2c(F)cccc2-n2nccn2)[C@@H]1CNc1ncc(Cl)cn1 [Example A260, ((2S,3R)-2-(((5-Chloropyrimidin-2-yl)amino)methyl)-3-methylpiperidin-1-yl)(2-fluoro-6-(2H-1,2,3-triazol-2-yl)phenyl)methanone]",> 5
3,"Cc1ccc(-c2ccnn2C)c(C(=O)N2CCC[C@@H](C)[C@H]2CNc2nc3cc(Cl)ccc3o2)c1 [Example A50, ((2S,3R)-2-(((5-Chlorobenzo[d]oxazol-2-yl)amino)methyl)-3-methylpiperidin-1-yl)(5-methyl-2-(1-methyl-1H-pyrazol-5-yl)phenyl)methanone]",> 5
4,"Cc1ccc(-n2cccn2)c(C(=O)N2CCC[C@@H](C)[C@H]2CNc2ccc(C(F)(F)F)nn2)n1 [Example A164, ((2S,3R)-3-Methyl-2-(((6-(trifluoromethyl)pyridazin-3-yl)amino)methyl)piperidin-1-yl)(6-methyl-3-(1H-pyrazol-1-yl)pyridin-2-yl)methanone]",> 5
5,"Cc1cccc(-c2ncccn2)c1C(=O)N1CCC[C@@H](C)[C@H]1CNc1ncc(C(F)(F)F)cn1 [Example A307, ((2S,3R)-3-Methyl-2-(((5-(trifluoromethyl)pyrimidin-2-yl)amino)methyl)piperidin-1-yl)(2-methyl-6-(pyrimidin-2-yl)phenyl)methanone]",> 5
6,"Cc1ccc(-n2nccn2)c(C(=O)N2CCC[C@@H](C)[C@H]2CNc2ncc(C(F)(F)F)cn2)c1F [Example A319, (2-Fluoro-3-methyl-6-(2H-1,2,3-triazol-2-yl)phenyl)((2S,3R)-3-methyl-2-(((5-(trifluoromethyl)pyrimidin-2-yl)amino)methyl)piperidin-1-yl)methanone]",4.5
7,"COc1c(F)cccc1C(=O)N1CCC[C@@H](C)[C@H]1CNc1ccc(C(F)(F)F)cn1 [Example A75, (3-Fluoro-2-methoxyphenyl)((2S,3R)-3-methyl-2-(((5-(trifluoromethyl)pyridin-2-yl)amino)methyl)piperidin-1-yl)methanone]",> 5
8,"C[C@@H]1CCCN(C(=O)c2cc(Cl)ccc2-c2ncccn2)[C@@H]1CNc1ccc(Cl)cn1 [Example A203, (5-Chloro-2-(pyrimidin-2-yl)phenyl)((2S,3R)-2-(((5-chloropyridin-2-yl)amino)methyl)-3-methylpiperidin-1-yl)methanone]",> 5
9,"Cc1ccc(-c2cnn(C)c2)c(C(=O)N2CCC[C@@H](C)[C@H]2CNc2ncccc2C)c1 [Example A100, ((2S,3R)-3-Methyl-2-(((3-methylpyridin-2-yl)amino)methyl)piperidin-1-yl)(5-methyl-2-(1-methyl-1H-pyrazol-4-yl)phenyl)methanone]",1.2

# Continued, values first:
row,IC50 [µM],Structure (SMILES)
1,3.6,"C[C@@H]1CCCN(C(=O)c2ccccc2-n2nccn2)[C@@H]1CNc1ncc(C(F)(F)F)cn1 [Example A313, (2-(2H-1,2,3-Triazol-2-yl)phenyl)((2S,3R)-3-methyl-2-(((5-(trifluoromethyl)pyrimidin-2-yl)amino)methyl)piperidin-1-yl)methanone]"
2,> 4,"Cc1ccc(-c2ccn(C)c2)c(C(=O)N2CCC[C@@H](C)[C@H]2CNc2ccc(C(F)(F)F)cn2)c1 [Example A6, ((2S,3R)-3-Methyl-2-(((5-(trifluoromethyl)pyridin-2-yl)amino)methyl)piperidin-1-yl)(5-methyl-2-(1-methyl-1H-pyrrol-3-yl)phenyl)methanone]"
3,1.3,"C[C@@H]1CCCN(C(=O)c2cc(Cl)ccc2-n2nccn2)[C@@H]1CNc1ncc(C(F)(F)F)cn1 [Example A160, (5-Chloro-2-(2H-1,2,3-triazol-2-yl)phenyl)((2S,3R)-3-methyl-2-(((5-(trifluoromethyl)pyrimidin-2-yl)amino)methyl)piperidin-1-yl)methanone]"
4,> 5,"C[C@@H]1CCCN(C(=O)c2cc(C#N)ccc2-n2nccn2)[C@@H]1CNc1ncc(C(F)(F)F)cn1 [Example A322, 3-((2S,3R)-3-Methyl-2-(((5-(trifluoromethyl)pyrimidin-2-yl)amino)methyl)piperidine-1-carbonyl)-4-(2H-1,2,3-triazol-2-yl)benzonitrile]"
5,> 5,"Cc1ccc(-n2nccn2)c(C(=O)N2CCC[C@@H](C)[C@H]2CNc2nc(C(F)(F)F)cs2)c1 [Example A123, ((2S,3R)-3-Methyl-2-(((4-(trifluoromethyl)thiazol-2-yl)amino)methyl)piperidin-1-yl)(5-methyl-2-(2H-1,2,3-triazol-2-yl)phenyl)methanone]"
6,1.8,"Cc1ccc(-n2nccn2)c(C(=O)N2CCC[C@@H](C)[C@H]2CNc2ncccc2C(F)(F)F)c1 [Example A88, ((2S,3R)-3-Methyl-2-(((3-(trifluoromethyl)pyridin-2-yl)amino)methyl)piperidin-1-yl)(5-methyl-2-(2H-1,2,3-triazol-2-yl)phenyl)methanone]"
7,0.23,"Cc1ccc(-c2cnccn2)c(C(=O)N2CCC[C@@H](C)[C@H]2CNc2ccc(C(F)(F)F)cn2)c1 [Example A19, ((2S,3R)-3-Methyl-2-(((5-(trifluoromethyl)pyridin-2-yl)amino)methyl)piperidin-1-yl)(5-methyl-2-(pyrazin-2-yl)phenyl)methanone]"
8,> 5,"Cc1ccc(-n2nccn2)c(C(=O)N2CCC[C@@H](C)[C@H]2CNc2ncc(Cl)cc2F)c1 [Example A173, ((2S,3R)-2-(((5-Chloro-3-fluoropyridin-2-yl)amino)methyl)-3-methylpiperidin-1-yl)(5-methyl-2-(2H-1,2,3-triazol-2-yl)phenyl)methanone]"
9,> 5,"Cc1ccc(-n2nccn2)c(C(=O)N2CCC[C@@H](C)[C@H]2CNc2ccc(Cl)cn2)n1 [Example A178, ((2S,3R)-2-(((5-Chloropyridin-2-yl)amino)methyl)-3-methylpiperidin-1-yl)(6-methyl-3-(2H-1,2,3-triazol-2-yl)pyridin-2-yl)methanone]"
10,0.1,"Cc1ccc(-n2nccn2)c(C(=O)N2CCC[C@@H](C)[C@H]2CNc2nc3cc(F)ccc3o2)c1 [Example A129, ((2S,3R)-2-(((5-Fluorobenzo[d]oxazol-2-yl)amino)methyl)-3-methylpiperidin-1-yl)(5-methyl-2-(2H-1,2,3-triazol-2-yl)phenyl)methanone]"
11,> 5,"Cc1ccc(-n2nccn2)c(C(=O)N2CCC[C@@H](C)[C@H]2CNc2ccc(C#N)cn2)c1 [Example A46, 6-((((2S,3R)-3-Methyl-1-(5-methyl-2-(2H-1,2,3-triazol-2-yl)benzoyl)piperidin-2-yl)methyl)amino)nicotinonitrile]"

# Same assay, conditions: Table 2; CHO-OX2 cells, EC90 of OXA; read-out: IC50 Bioactivity OX2
row,Structure (SMILES),IC50 [µM]
1,"Cc1nc(C(=O)N2CCC[C@@H](C)[C@H]2COc2nc3ccccc3o2)c(-c2ccc(F)cc2)s1 (racemic) [Example 80, rac-cis-(2-((Benzo[d]oxazol-2-yloxy)methyl)-3-methylpiperidin-1-yl)(5-(4-fluorophenyl)-2-methylthiazol-4-yl)methanone]",> 10
2,"CO[C@H]1C[C@@H](CNC(=O)c2cccc3cccnc23)N(C(=O)c2ccccc2-c2ccccc2)C1 [Example 127, N-(((2S,4S)-1-([1,1′-Biphenyl]-2-carbonyl)-4-methoxypyrrolidin-2-yl)methyl)quinoline-8-carboxamide]",0.025
3,"Cc1nc(C(=O)N2CCC[C@@H](C)[C@H]2CNc2cc(C(F)(F)F)ccn2)c(-c2ccc(F)cc2)s1 (racemic) [Example 21, rac-cis-(5-(4-Fluorophenyl)-2-methylthiazol-4-yl)(3-methyl-2-(((4-(trifluoromethyl)pyridin-2-yl)amino)methyl)piperidin-1-yl)methanone]",0.52
4,"CC[C@@H]1CCCN(C(=O)c2nc(C)sc2-c2ccc(F)cc2)[C@@H]1CNc1nc2ccccc2o1 (racemic) [Example 77, rac-cis-(2-((Benzo[d]oxazol-2-ylamino)methyl)-3-ethylpiperidin-1-yl)(5-(4-fluorophenyl)-2-methylthiazol-4-yl)methanone]",> 10
5,"CO[C@@H]1CCCN(C(=O)c2nc(C)sc2-c2ccc(F)cc2)[C@@H]1CNc1ccc(C(F)(F)F)cn1 (racemic) [Example 92, rac-cis-(3-Methoxy-2-(((5-(trifluoromethyl)pyridin-2-yl)amino)methyl)piperidin-1-yl) (5-(4-fluorophenyl)-2-methylthiazol-4-yl)methanone]",> 4
6,"Cc1nc(C(=O)N2CC(F)(F)CCC2CNC(=O)c2cccc3cccnc23)c(-c2cccc(F)c2)s1 (racemic) [Example 52, rac-N-((5,5-Difluoro-1-(5-(3-fluorophenyl)-2-methylthiazole-4-carbonyl)piperidin-2-yl)methyl)quinoline-8-carboxamide]",0.01

# Results, then the compound that gave them:
row,IC50 [µM],Structure (SMILES)
1,> 10,"Cc1ccc(-c2cncnc2)c(C(=O)N2CCC[C@@H](C)[C@H]2CNc2ccc(C(F)(F)F)cn2)c1 (racemic) [Example 107, rac-cis-(3-Methyl-2-(((5-(trifluoromethyl)pyridin-2-yl)amino)methyl)piperidin-1-yl) (5-methyl-2-(pyrimidin-5-yl)phenyl)methanone]"
2,> 10,"Cc1ccc(-n2nccn2)c(C(=O)N2CCC[C@@H](C)[C@H]2CNc2ncc(Cl)cn2)c1 (racemic) [Example 98, rac-cis-(2-(((5-Chloropyrimidin-2-yl)amino)methyl)-3-methylpiperidin-1-yl)(5-methyl-2-(2H-1,2,3-triazol-2-yl)phenyl)methanone]"
3,> 10,"Cc1ccc(-c2ncccn2)c(C(=O)N2CCC[C@@H](C)[C@H]2CNc2ccc(C(F)(F)F)cn2)c1 (racemic) [Example 112, rac-cis-(3-Methyl-2-(((5-(trifluoromethyl)pyridin-2-yl)amino)methyl)piperidin-1-yl)(5-methyl-2-(pyrimidin-2-yl)phenyl)methanone]"
